# Patent US20260275412A1, “A GENE SIGNATURE FOR DIAGNOSING STIMULATOR OF INTERFERON GENES (STING)-ASSOCIATED VASCULOPATHY WITH ONSET IN INFANCY (SAVI)” (INSTITUT NATIONAL DE LA SANTÉ ET DE LA RECHERCHE MÉDICALE, priority 2023, published 2026)
# Experiments:
# Format in all cases: cell-based, human
# healthy PBMC [1] = experiment: IFN-β stimulation of healthy PBMC, cell phenotyping by CyTOF; conditions: within 36 hours of stimulation; scRNA-seq validated by CyTOF
# Method: (§1) Buffy coats from three healthy young male (19 to 22 years old) were obtained from the Etablissement Français du Sang. PBMCs were isolated using Ficoll (Eurobio Scientific, Les Ulis, France) density gradient and centrifugation at 800 g without brakes for 25 minutes. Following centrifugation, cells were washed in wash buffer and centrifuged at 160 g for 9 minutes at 4° C. and the pellet was resuspended in 10 mL of wash buffer. Cells were plated in 96-wells tissue culture plates, with 150,000 cells per wells in an initial volume of 125 μL. One plate was made for each donor for each timepoint to plate a total of 15 million cells per condition.
# Cells were challenged with 25 μL of recombinant IFN-β (Human interferon beta 1a, mammalian, Catalog No 11410-2, PBL assay Science, USA) at 6,000 IU/mL for a final concentration of 1000 U/mL per well, at one of several timepoints: 1 h, 2 h, 4 h, 8 h, 12 h, 24 h or 36 h. Stimulations were done so that all cells, even unstimulated, would be kept a total of 36 h in culture. After 36 h of culture at 37° C., 5% of CO2, cells were collected and counted. 10,000 cells were sent to scRNA-seq and 2 million to cell phenotyping by CyTOF. Supernatant was frozen at −20° C. and kept for analysis of secreted proteins. […]
# healthy PBMC [2] = experiment: IFN-β stimulation of healthy PBMC, secreted cytokines by proximity extension assay (Olink); conditions: conditioned media
# Method: (§2) Cells were challenged with 25 μL of recombinant IFN-β (Human interferon beta 1a, mammalian, Catalog No 11410-2, PBL assay Science, USA) at 6,000 IU/mL for a final concentration of 1000 U/mL per well, at one of several timepoints: 1 h, 2 h, 4 h, 8 h, 12 h, 24 h or 36 h. Stimulations were done so that all cells, even unstimulated, would be kept a total of 36 h in culture. After 36 h of culture at 37° C., 5% of CO2, cells were collected and counted. 10,000 cells were sent to scRNA-seq and 2 million to cell phenotyping by CyTOF. Supernatant was frozen at −20° C. and kept for analysis of secreted proteins.
# The plasma samples and conditioned media from in vitro stimulated PBMC were analyzed by proximity extension assays (PEA), a targeted, antibody-based, proteomics method. We used the PEA Olink Target96 Inflammation panel which targets 92 biomarkers. Briefly, 2 DNA-labeled antibodies bind to a targeted protein, followed by hybridization of the oligonucleotides when the antibodies come in close proximity to each other. Adding DNA polymerase to the sample generates a unique PCR target sequence, which is then detected and quantified using a quantitative PCR (qPCR) readout (BiomarkHD™, Data collection and Real Time PCR analysis software 4.7.1, Fluidigm).
# The Olink PEA Quality control process consists of technical controls to monitor the performance of all 3 steps of the assays (immunoreaction, extension, and amplification/detection) as well as the individual samples. Internal controls are spiked into each sample to provide a non-human assay control, a positive extension control consisting of an antibody coupled to a unique DNA-pair and, finally, a positive detection control based on a double stranded DNA amplicon. In addition, each experimental run includes a control strip with control samples used to estimate the accuracy of protein detection and quantification (intra- and inter-coefficient of variation). A negative control (buffer) run in triplicate is used to set background levels and calculate limit of detection (LOD), a plate control (plasma pool) is run in triplicate for plate normalization, and a sample control (reference plasma) is included in duplicate to estimate CV between runs.
# Data are presented as NPX (Normalized Protein expression) values. NPX is Olink's relative protein quantification unit on log 2 scale. Data generation of NPX (obtained using Olink NPX Manager 3.3.2.434) consists of normalization to the extension control (known standard), log 2-transformation, and level adjustment using the plate control (plasma sample).
# Serial dilutions of samples are performed to determine a potential Hook effect (observed when there is an antigen excess relative to the reagent antibodies, resulting in falsely lower values). […]
# healthy PBMC [3] = experiment: IFN-β stimulation of healthy PBMC, scRNA-seq
# Method: as §1, §2
# The 24 scRNA-seq libraries of the IFN dataset were generated using Chromium Single Cell Next GEM 3′ Library & Gel Bead Kit v.3.1 (10× Genomics) according to the manufacturer's protocol, following the same steps as in the SAVI dataset. The purified libraries were sequenced on a Novaseq (Illumina) with 28 cycles of read 1, 8 cycles of i7 index and 91 cycles of read 2.
# Sequencing reads were demultiplexed and aligned to the human reference genome (hg38), and counted using the CellRanger Pipeline v6.0. Unfiltered RNA UMI counts were loaded into Seurat v4 for quality control, data integration and downstream analyses. Apoptotic cells and empty sequencing capsules were excluded by filtering out cells with low number of features (Filters were defined based on the batch: STING1: nFeature <300; STING2 and STING3<500; IFN-stim <750) or a mitochondrial content higher than 20%. Data from each sample were normalized using sctransform, before batch correction using Seurat's FindIntegratedAnchors, on the 3,000 most variable features. For the IFN-β dataset, for computational efficiency, integration anchors were determined with a canonical correlation analysis, using all unstimulated samples as reference. For the SAVI dataset, to avoid over-aligning samples, a reciprocal principal component analysis (PCA) was used to find integration anchors. On the resulting integrated datasets, we computed the PCA on the 3000 most variable genes, before computing a UMAP (on 20 PCs for SAVI and 30 PCs for IFN-stimulation). Community detection was performed using the graph-based modularity-optimization Louvain algorithm from Seurat's FindClusters function with a 1.2 resolution. Cell types labels were assigned to resulting clusters based on a manually curated list of marker genes as well as previously defined signatures of the PBMC subtypes.^58 Despite filtering for high quality cells, 11/34 clusters in the SAVI dataset and 7/36 in the IFN-β dataset stood out as poor quality clusters and were removed from further analysis. They represented low UMI cells, dying cells, cycling cells, doublets, or contaminants (progenitor cells, basophils, platelets or megakaryocytes). A total of 112,060 and 115,503 cells were kept in the SAVI and IFN-β datasets respectively. Transcriptomic signatures scores were calculated using Seurat's AddModuleScore function. Differential expression testing was conducted using the FindMarkers function in Seurat, with default Wilcoxon testing. P-values were controlled using Bonferroni correction. Genes with an absolute log (fold-change) ≥0.25 and an adjusted p-value≤0.05 were selected as differentially expressed. […]
# [4] = PBMCs stimulated with IFN-β for 36 h
# [5] = IFN-β stimulated monocytes, 36 h
substance,measurement,setting,value
"IFN-β: recombinant IFN-β (Human interferon beta 1a, mammalian, Catalog No 11410-2, PBL assay Science)",effector T cells (cell type proportions),healthy PBMC [1],no decrease
same,CCL19 secretion,healthy PBMC [2]; [4],induction
same,CXCL10 secretion,healthy PBMC [2]; [4],induction
same,VEGFA secretion,healthy PBMC [2]; [4],induction
same,CXCL8 secretion,healthy PBMC [2]; PBMCs stimulated with IFN-β,increased secretion
same,STING activation signature (21 genes),"healthy PBMC [3]; IFN data set, any timepoint",not increased
same,transcriptomic signature of NF-κB activation,"healthy PBMC [3]; IFN-β 1000 U/mL, 1 h to 36 h, particularly monocytes and DCs",induced by IFN-β as soon as one-hour of stimulation but continues to increase until 36 h
same,IFN-related and inflammation-related pathways,"healthy PBMC [3]; IFN-β for 36 h, pathway analysis of DEGs",activated
same,cell death pathways,healthy PBMC [3]; IFN-β for 36 h compared to unstimulated cells,enriched
same,PPP1R15A expression,healthy PBMC [3]; [5],increased
same,UPR signature,healthy PBMC [3]; [5],increased
same,UPR,"healthy PBMC [3]; IFN-β stimulation, compared with SAVI patients",slight increase
same,unfolded protein response (UPR) pathway,"healthy PBMC [3]; IFN-β time course, increasing induction throughout",induced as soon as 4 h
same,EIF2 signaling pathway,"healthy PBMC [3]; IFN-β time course, lowest prediction score at 36 h",inhibited as soon as 2 h
same,senescence signature,"healthy PBMC [3]; T cells, IFN-β dataset",increased senescence
same,proportion of cells in G2/M phase,"healthy PBMC [3]; T cells, IFN-β dataset, back to normal after 36 h",decreased proportion of cells in G2/M phase
same,CD69 expression (mRNA),"healthy PBMC [3]; T cells, IFN-β time course",induced by IFN-β challenge at early time points but returned to basal levels between 4 and 12 h post stimulation
same,"other cell death pathways (necroptosis, death receptor signaling)","healthy PBMC [3]; T cells, IFN-β-challenge",induced
same,global T cell activation signature,"healthy PBMC [3]; T cells, IFN-β-challenged cells",increased
same,apoptosis signature,"healthy PBMC [3]; T cells, IFN-β-treated, 2 h, decreased afterwards",sharp increase
same,lymphocyte trafficking signature,healthy PBMC [3]; effector T cell clusters after IFN-β challenge,decreased
same,actin/integrin-related pathways,"healthy PBMC [3]; healthy PBMCs 36 h post-IFN-β stimulation, predicted","activated in T cells and B cells, while inhibited in monocytes and NK cells"
same,type I IFN response signature,"healthy PBMC [3]; recombinant IFN-β 1000 U/mL, 1 h to 36 h","robust induction as soon as one hour of stimulation, peaking after 2 h"
